HCMV UL50-53 inh: inhibitors of HCMV UL50-UL53 interaction, biochemical, HTRF; HCMV UL50-UL53 nuclear egress complex (human cytomegalovirus); normalized percent inhibition; 190,000 tested, 0.15% active; inhibition, % (test concentration not listed); in the data active means inhibition above about 27%, passing the limit was not always enough
GIV-Gai inh: inhibitors of GIV peptide binding to Galpha-i3, primary screen, biochemical, fluorescence polarization, FITC-GIV GBA peptide, rat Galphai3 | 90 min; stronger effect = lower value; scaled: aluminum fluoride 0%, vehicle 100% | AID 1224905, 2016 | 210,000 compounds, 0.42% hits | percent of control (FP), % (concentration not given with the values) | Guanine nucleotide-binding protein G(i) subunit alpha-3 (Rattus norvegicus), P08753;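 active = replicate mean at 85% of control or lower, very high polarization wells dropped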;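 note: wells of about 15 µL received 100 nL stock; the first replicate is given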
GIV-Gai FP conf: inhibitors of GIV peptide binding to Galpha-i3, confirmation, biochemical, fluorescence polarization, FITC-GIV peptide, rat Galphai3; 580 tested, 38% active; fluorescence polarization, mP at 100 µM; AID 1259350, 2017; hits give low values; shares compounds with GIV-Gai inh;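 active means inhibition score of 15 or more, meaning 100 minus mean polarization as percent of control over three replicates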;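 further: lower mP means peptide displaced from Galphai3 so more inhibition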
GIV-Gai AS conf: inhibitors of GIV binding to Galpha-i3, confirmation, orthogonal assay for GIV-Galpha-i inhibitor project, biochemical, AlphaScreen, His-GIV, GST-Galphai3; shares compounds with GIV-Gai inh; purified proteins, 90 min; hits give low values; AlphaScreen counts at 100 µM; 580 tested, 39% active;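 active means inhibition score at or above a set limit, where the score is 100 minus the three-replicate mean percent of control signal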
* marks the source's active call; other numbers are inactive results; x = not tested or not shown. Hits are enriched below; roughly 0.46% of the tested compounds scored in any of these assays.

Sequences of proteins named here, by UniProt entry; tags and fusion partners are left off.
Guanine nucleotide-binding protein G(i) subunit alpha-3 (Rattus norvegicus), P08753, UniProt P08753, whole entry, looked up: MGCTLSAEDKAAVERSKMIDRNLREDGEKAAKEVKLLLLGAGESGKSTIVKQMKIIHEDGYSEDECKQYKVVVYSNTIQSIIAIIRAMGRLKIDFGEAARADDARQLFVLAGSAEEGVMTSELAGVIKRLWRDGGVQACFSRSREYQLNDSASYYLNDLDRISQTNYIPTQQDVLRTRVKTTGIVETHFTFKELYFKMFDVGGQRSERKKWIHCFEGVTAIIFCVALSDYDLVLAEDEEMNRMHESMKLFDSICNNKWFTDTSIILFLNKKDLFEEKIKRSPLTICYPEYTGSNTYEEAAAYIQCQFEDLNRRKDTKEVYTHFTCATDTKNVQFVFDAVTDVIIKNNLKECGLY

SMILES	HCMV UL50-53 inh	GIV-Gai inh	GIV-Gai FP conf	GIV-Gai AS conf
O=c1[nH]c2nonc2nc1/C=C(\O)c1ccccc1	-80	101	x	x
NC(=O)NC(=O)c1nc2nonc2[nH]c1=O	3	44*	42*	23047
CSc1nsc(SC)c1C(=O)NC(=O)N1CCSCC1	-34	107	x	x
Nc1nc2c3cccc4cccc(c(=O)n2n1)c43	-120	80*	75	24808
Cc1cc2nc3c4cccc5cccc(c(=O)n3c2cc1C)c54	x	101	x	x
O=C(NCCn1c(CCc2ccccc2)nc2ccccc21)NCc1ccc(F)cc1	-18	105	x	x
C=CCN1C(=O)/C(=C2/Sc3ccc(Cl)cc3N2CC)SC1=S	x	111	x	x
C=CCN1C(=O)/C(=C2/Sc3ccccc3N2CC)SC1=S	x	77*	72	3469*
CC1(C)CC(C(CC#N)c2ccccc2)CCO1 (stereo not drawn)	-20	98	x	x
Cc1cc(C)c2sc(N3CCN(C(=O)C(C)(C)C)CC3)nc2c1	-26	98	x	x
CC(C)c1ccc(C2=CC(=O)C=CC2=O)cc1	-10	107	x	x
O=C1C=CC(=O)C(c2ccc(C(=O)O)cc2)=C1	-8	70*	55*	2443*
CC(=O)N1CN(C(C)=O)C(O)C1O (stereo not drawn)	4	103	x	x
CC(=O)N1CC(C)=C(C#N)C1O (stereo not drawn)	2	73*	48*	19185*
O=c1[nH]c(SCc2ccc(Cl)cc2)nc2c(-c3ccccc3)c[nH]c12	-29	106	x	x
Cc1cc(OCC(=O)Nc2ccccc2Cc2ccccc2)no1	-14	x	x	x
CC(C)Cn1c(SCn2nnc3ccccc3c2=O)nc2ccccc2c1=O	-26	x	x	x
Nc1cccc2c1C(=O)N(CC(=O)O)C2=O	-41	81*	72	47777
Nc1cccc2c1C(=O)N(CC(=O)NC13CC4CC(CC(C4)C1)C3)C2=O	-17	x	x	x
CCOc1ccc(C(=O)Nc2ccc3oc(-c4ccncc4)nc3c2)cc1Br	x	108	x	x

Complete entries as entered above. Screens in order: HCMV UL50-53 inh | GIV-Gai inh | GIV-Gai FP conf | GIV-Gai AS conf
`CC(=O)N1CN(C(C)=O)C(O)C1O` (stereo not drawn) is entered as 4 | 103 | x | x
`Nc1cccc2c1C(=O)N(CC(=O)O)C2=O` is entered as -41 | 81* | 72 | 47777
`Nc1nc2c3cccc4cccc(c(=O)n2n1)c43` is entered as -120 | 80* | 75 | 24808
`Cc1cc2nc3c4cccc5cccc(c(=O)n3c2cc1C)c54` is entered as x | 101 | x | x
`CSc1nsc(SC)c1C(=O)NC(=O)N1CCSCC1` is entered as -34 | 107 | x | x

More entries
SMILES	HCMV UL50-53 inh	GIV-Gai inh	GIV-Gai FP conf	GIV-Gai AS conf
CCOc1ccc(C(=O)Nc2ccc(-c3nc4ccccc4o3)cc2)cc1Br	7	69*	79	44420
CC1=NN(c2ccccc2)C(=O)C1C(c1ccccc1)C(C#N)C#N (stereo not drawn)	x	106	x	x
CC1=NN(c2ccccc2)C(=O)C1C(c1ccc2c(c1)OCO2)C1C(=O)N(c2ccccc2)N=C1C (stereo not drawn)	x	72*	63	17537*
CCCCC[C@H](O)/C=C/[C@@H]1[C@H](C/C=C\CCCC(=O)O)[C@H](O)C[C@H]1O	-11	x	x	x
CCCCOc1ccc(C2=N/C(=C\c3ccc(OC(C)=O)c(OC(C)=O)c3)C(=O)O2)cc1	-26	72*	69	51880
CCCCOc1ccc(C2=N/C(=C\c3ccc(OC)c(OC(C)=O)c3)C(=O)O2)cc1	-33	102	x	x
Oc1ccc(Cl)cc1C=Nc1cccc2nsnc12	26	74*	58*	6922*
Cc1ccc(C=Nc2cccc3nsnc23)c(O)c1	-33	101	x	x
COc1ccc(OC)c(NC(=O)n2ncc3cc(Cl)ccc32)c1	-1	105	x	x
CSc1nnnn1-c1ccc(S(=O)(=O)N(C)C)cc1	-4	103	x	x
Cc1ccc(C2=NS(=O)(=O)N(C)C(C(=O)Nc3ccc(F)cc3F)=C2)cc1	-34	106	x	x
COc1ccc(OC)c(C2=NS(=O)(=O)N(C)C(C(=O)Nc3ccc(F)cc3F)=C2)c1	-21	95	80	32539
COc1ccccc1N1C(=O)S/C(=C\c2ccccc2)C1=O	x	103	x	x
O=C(Cn1cnc2onc(-c3ccc(Cl)cc3)c2c1=O)Nc1ccc(F)cc1F	1	105	x	x
CC(NCc1ccc(F)cc1)C12CC3CC(CC(C3)C1)C2 (stereo not drawn)	x	88	62	43107
CC(NCc1ccc(F)cc1)C(=O)NC1CCCCC1 (stereo not drawn)	-18	101	x	x
Cc1cc(N2CCOCC2)n2nc(C(F)(F)F)c(-c3ccc(Cl)cc3)c2n1	2	88	66	42837
Cc1ccc(-c2c(C(F)(F)F)nn3c(-n4nc(C)cc4C)cc(C)nc23)cc1	0	93	65	45290
Cc1cc(N2CCOCC2)n2nc(C)c(-c3ccc(F)cc3)c2n1	-24	110	x	x
Cc1ccc(-c2c(C(F)(F)F)nn3c(N4CCN(C)CC4)cc(C)nc23)cc1	-17	97	x	x
CN1CCN(NS(=O)(=O)c2ccc3ccccc3c2)CC1	-18	101	x	x
Cc1ccc(C(=O)NCCn2ccc3ccccc32)cc1	x	94	x	x
O=C(NCCn1ccc2ccccc21)c1ccc(F)cc1	x	60*	64	37703
CC(=O)N1N=C(c2c(-c3ccccc3)c3cc(Cl)ccc3[nH]c2=O)CC1c1ccc(Br)cc1 (stereo not drawn)	-3	102	x	x
CCSCCOC(=O)C1=C(C)N(C)C(=O)NC1c1ccc(OCc2ccccc2)cc1 (stereo not drawn)	6	107	x	x
O=C(CNS(=O)(=O)c1ccccc1)Oc1ccc2ccc(=O)oc2c1	-4	x	x	x
CCOC(=O)c1ccccc1Nc1nc2ccc(C)cc2n2nnnc12	-6	107	x	x
COc1ccccc1Nc1nc2ccc(C)cc2n2nnnc12	-19	74*	69	51081
CCN=c1sc(CC(=O)O)c(-c2ccc(Cl)cc2)n1CC	2	x	x	x
CC1=C(C(=O)OC2CCCCC2)C(c2coc3ccc(Cl)cc3c2=O)C2=C(CCCC2=O)N1 (stereo not drawn)	-20	105	x	x
CC1=C(C(=O)OC2CCCCC2)C(c2coc3ccc(Cl)cc3c2=O)C2=C(CC(C)(C)CC2=O)N1 (stereo not drawn)	-10	92	63	54497
O=C(Nc1ccc(N2CCOCC2)cc1)c1sc2cc(F)ccc2c1Cl	-4	x	x	x
CC1(C)C=C2C(=NN(c3ccccc3)C(N)=C2C#N)CO1	-40	83*	66	39806
CCC1(C)Cc2c(C#N)c(N)n(-c3ccccc3)c(=O)c2CO1 (stereo not drawn)	-12	x	x	x
COC(=O)c1cnn(-c2c(Cl)cccc2Cl)c1C=C(C#N)C#N	4	97	x	x
COC(=O)c1cc(-c2cocc2C=C(C#N)C#N)ccc1Cl	-9	52*	75	27781
COc1cccc(CNC(=O)c2c3c(nc4ccccc24)C(=O)N(C2CCCCC2)C3)c1	x	89	81	34982
COc1ccc(CNC(=O)c2c3c(nc4ccccc24)C(=O)N(C2CCCCC2)C3)cc1	x	100	x	x
O=C1c2ccccc2-c2n[nH]c(=S)nc21	-170	97	x	x
O=C1c2ccccc2-c2nc3nonc3nc21	36	49*	44*	17911*
CCCCC[C@H](O)/C=C/[C@@H]1[C@@H](C/C=C\CCCCCC(=O)O)[C@@H](O)C[C@H]1O	2	x	x	x
Cc1ccc(C)n1Cc1ccc(C(=O)O)cc1	70*	33*	48*	3139*
Cc1ccc(C)n1CCC(=O)O	-1	71*	60	3780*

As a short view, part of the list above:
SMILES	HCMV UL50-53 inh	GIV-Gai inh	GIV-Gai FP conf	GIV-Gai AS conf
Cc1ccc(C)n1Cc1ccc(C(=O)O)cc1	70*	33*	48*	3139*
Cc1ccc(C)n1CCC(=O)O	-1	71*	60	3780*

Bioassay records (PubChem BioAssay)
